Source: US10919903B2

Chains of the proteins cited; added tags and fusions are not shown. Residues count along the entry.
UniProt Q96RI1, whole entry: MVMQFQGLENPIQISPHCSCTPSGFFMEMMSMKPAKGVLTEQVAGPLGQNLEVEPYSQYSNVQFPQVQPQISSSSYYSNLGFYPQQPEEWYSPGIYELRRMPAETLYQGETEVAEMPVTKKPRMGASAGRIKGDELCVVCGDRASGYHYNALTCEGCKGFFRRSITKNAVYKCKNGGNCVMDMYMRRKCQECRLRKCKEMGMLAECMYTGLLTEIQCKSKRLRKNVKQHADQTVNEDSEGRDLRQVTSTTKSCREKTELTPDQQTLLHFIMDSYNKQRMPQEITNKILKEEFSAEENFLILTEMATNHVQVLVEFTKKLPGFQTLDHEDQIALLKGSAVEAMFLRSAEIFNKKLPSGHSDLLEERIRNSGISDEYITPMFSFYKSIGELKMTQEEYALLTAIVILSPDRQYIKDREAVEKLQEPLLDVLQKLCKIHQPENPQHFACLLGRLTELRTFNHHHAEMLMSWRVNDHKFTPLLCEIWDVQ
UniProt Q96RI1, 262-486 limits assumed: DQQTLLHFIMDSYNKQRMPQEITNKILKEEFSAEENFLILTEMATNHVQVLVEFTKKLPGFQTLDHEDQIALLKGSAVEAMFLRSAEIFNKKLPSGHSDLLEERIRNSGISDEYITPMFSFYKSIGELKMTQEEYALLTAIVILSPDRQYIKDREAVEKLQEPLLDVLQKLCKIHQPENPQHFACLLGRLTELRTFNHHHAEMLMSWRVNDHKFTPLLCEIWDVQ

Assays:
FXR-LBD = FXR-LBD (Homo sapiens, UniProt Q96RI1); test: FXR Coactivator Assay (LanthaScreen TR-FRET); assay type: biochemical; conditions: read-out: FXR Coactivator Assay (EC50)
FXR = FXR (Homo sapiens, UniProt Q96RI1); test: FXR Transactivation Assay (GAL4 luciferase reporter, pBIND-FXR in HEK293T); assay type: cell-based; conditions: read-out: FXR Transactivation Assay (EC50), HEK293T cells

Cn1c(N2CCN(Cc3c(-c4c(Cl)cccc4Cl)noc3C3CC3)CC2)nc2cc(C(=O)O)ccc21
EC50 (FXR-LBD): 401 to 5000 nM

C[C@@H]1CN(Cc2c(-c3c(Cl)cccc3Cl)noc2C2CC2)CCN1c1nc2c(Cl)cc(C(=O)O)cc2s1
EC50 (FXR): 10 to 100 nM

C[C@@H]1CN(c2nc3c(F)cc(C(=O)O)cc3s2)[C@@H](C)CN1Cc1c(-c2c(Cl)cccc2Cl)noc1C1CC1
EC50 (FXR): 401 to 5000 nM

CC(C)c1onc(-c2c(Cl)cccc2Cl)c1CN1CCN(c2cc3cc(C(=O)O)ccc3n2C)CC1
EC50 (FXR-LBD): 10 to 100 nM

COc1cc(C(=O)O)cc2sc(N3CCN(Cc4c(-c5c(Cl)cccc5Cl)noc4C(C)C)[C@@H](C)C3)nc12
EC50 (FXR-LBD): 10 to 100 nM
EC50 (FXR): 101 to 400 nM

COc1cc(C(=O)O)cc2sc(N3C[C@H](C)N(Cc4c(-c5c(Cl)cccc5Cl)noc4C4CC4)C[C@H]3C)nc12
EC50 (FXR): 10 to 100 nM

C[C@@H]1CN(c2nc3c(F)cc(C(=O)O)cc3s2)[C@H](C)CN1Cc1c(-c2c(Cl)cccc2Cl)noc1C1CC1
EC50 (FXR): 401 to 5000 nM

CC(C)c1cnn(-c2c(Cl)cccc2Cl)c1CN1CCN(c2nc3c(F)cc(C(=O)O)cc3s2)CC1
EC50 (FXR): 101 to 400 nM

C[C@H]1CN(c2nc3c(F)cc(C(=O)O)cc3s2)CCN1Cc1c(-c2c(Cl)cccc2Cl)noc1C1CC1
EC50 (FXR): 101 to 400 nM

Cc1cc(C(=O)O)cc2sc(N3C[C@@H](C)N(Cc4c(-c5c(Cl)cccc5Cl)noc4C4CC4)C[C@H]3C)nc12
EC50 (FXR): 401 to 5000 nM

CC(C)c1onc(-c2c(Cl)cccc2Cl)c1CN1CCN(c2nc3c(F)cc(C(=O)O)cc3s2)CC1
EC50 (FXR-LBD): 10 to 100 nM
EC50 (FXR): 101 to 400 nM

Cc1cc(C(=O)O)cc2sc(N3CCN(Cc4c(-c5c(Cl)cccc5Cl)noc4C4CC4)[C@@H](C)C3)nc12
EC50 (FXR): 401 to 5000 nM

Cc1cc(C(=O)O)cc2sc(N3CCN(Cc4c(-c5c(Cl)cccc5Cl)noc4C4CC4)C[C@H]3C)nc12
EC50 (FXR): 10 to 100 nM

C[C@H]1CN(Cc2c(-c3c(Cl)cccc3Cl)noc2C2CC2)CCN1c1nc2ccc(C(=O)O)cc2s1
EC50 (FXR): 401 to 5000 nM

C[C@H]1CN(c2nc3ccc(C(=O)O)cc3s2)CCN1Cc1c(-c2c(Cl)cccc2Cl)noc1C1CC1
EC50 (FXR): 401 to 5000 nM

COc1cc(C(=O)O)cc2sc(N3C[C@@H](C)N(Cc4c(-c5c(Cl)cccc5Cl)noc4C(C)C)C[C@@H]3C)nc12
EC50 (FXR-LBD): 10 to 100 nM
EC50 (FXR): 101 to 400 nM

C[C@@H]1CN(c2nc3c(F)cc(C(=O)O)cc3s2)CCN1Cc1c(-c2c(Cl)cccc2Cl)noc1C1CC1
EC50 (FXR): 101 to 400 nM

Cc1cc(C(=O)O)cc2sc(N3CCN(Cc4c(-c5c(Cl)cccc5Cl)noc4C4CC4)[C@H](C)C3)nc12
EC50 (FXR): 101 to 400 nM

COc1cc(C(N)=O)cc2sc(N3CCN(Cc4c(-c5c(Cl)cccc5Cl)noc4C4CC4)[C@H](C)C3)nc12
EC50 (FXR): 10 to 100 nM

COc1cc(C(=O)O)cc2sc(N3CCN(Cc4c(-c5c(Cl)cccc5Cl)noc4C(C)C)CC3)nc12
EC50 (FXR-LBD): 10 to 100 nM
EC50 (FXR): 101 to 400 nM

COc1cc(C(=O)O)cc2sc(N3CCN(Cc4c(-c5ccccc5OC(F)(F)F)noc4C(C)C)CC3)nc12
EC50 (FXR-LBD): 10 to 100 nM
EC50 (FXR): 10 to 100 nM

COc1cc(C(=O)O)cc2sc(N3CCN(Cc4c(-c5c(Cl)cccc5Cl)noc4C4CC4)CC3)nc12
EC50 (FXR-LBD): 10 to 100 nM
EC50 (FXR): 10 to 100 nM

C[C@@H]1CN(Cc2c(-c3c(Cl)cccc3Cl)noc2C2CC2)[C@@H](C)CN1c1nc2ccc(C(=O)O)cc2s1
EC50 (FXR): 10 to 100 nM

COc1cc(C(=O)O)cc2sc(N3C[C@H](C)N(Cc4c(-c5c(Cl)cccc5Cl)noc4C(C)C)C[C@H]3C)nc12
EC50 (FXR-LBD): 10 to 100 nM
EC50 (FXR): 10 to 100 nM

C[C@@H]1CN(c2nc3ccc(C(=O)O)cc3s2)CCN1Cc1c(-c2c(Cl)cccc2Cl)noc1C1CC1
EC50 (FXR): 401 to 5000 nM

COc1cc(C(=O)O)cc2sc(N3C4CCCC3CN(Cc3c(-c5c(Cl)cccc5Cl)noc3C3CC3)C4)nc12
EC50 (FXR): 401 to 5000 nM

O=C(O)c1ccc2nc(N3CCN(Cc4c(-c5c(Cl)cccc5Cl)noc4C4CC4)CC3)sc2c1
EC50 (FXR): 401 to 5000 nM

COc1cc(C(=O)O)cc2sc(N3C[C@@H](C)N(Cc4c(-c5c(Cl)cccc5Cl)noc4C4CC4)C[C@H]3C)nc12
EC50 (FXR): 401 to 5000 nM

Cc1cc(C(=O)O)cc2sc(N3CCN(Cc4c(-c5c(Cl)cccc5Cl)noc4C(C)C)CC3)nc12
EC50 (FXR-LBD): 10 to 100 nM
EC50 (FXR): 10 to 100 nM

COc1cc(C(=O)O)cc2sc(N3CCN(Cc4c(-c5c(Cl)cccc5Cl)noc4C4CC4)CCC3C)nc12 (centres unmarked)
EC50 (FXR-LBD): 10 to 100 nM
EC50 (FXR): 101 to 400 nM

C[C@H]1CN(Cc2c(-c3c(Cl)cccc3Cl)noc2C2CC2)CCN1c1nc2c(F)cc(C(=O)O)cc2s1
EC50 (FXR): 401 to 5000 nM

COc1cc(C(=O)O)cc2sc(N3CCN(Cc4c(-c5ccccc5OC(F)(F)F)noc4C4CC4)CC3)nc12
EC50 (FXR): 10 to 100 nM

C[C@@H]1CN(Cc2c(-c3c(Cl)cccc3Cl)noc2C2CC2)CCN1c1nc2ccc(C(=O)O)cc2s1
EC50 (FXR): 10 to 100 nM

COc1cc(C(=O)O)cc2sc(N3CCN(Cc4c(-c5c(Cl)cccc5Cl)noc4C4CC4)[C@H](C)C3)nc12
EC50 (FXR): 10 to 100 nM

COc1cc(C(=O)O)cc2sc(N3CCN(Cc4c(-c5c(Cl)cccc5Cl)noc4C(C)C)CCC3C)nc12 (centres unmarked)
EC50 (FXR): 401 to 5000 nM

CC(C)c1onc(-c2c(Cl)cccc2Cl)c1CN1CCN(c2nc3ccc(C(=O)O)cc3s2)CC1
EC50 (FXR): 101 to 400 nM

O=C(O)c1cc(F)c2nc(N3CCN(Cc4c(-c5c(Cl)cccc5Cl)noc4C4CC4)CC3)sc2c1
EC50 (FXR): 10 to 100 nM

COc1cc(C(=O)O)cc2sc(N3CCN(Cc4c(-c5c(Cl)cccc5Cl)noc4C(C)C)[C@H](C)C3)nc12
EC50 (FXR-LBD): 10 to 100 nM
EC50 (FXR): 10 to 100 nM

COc1cc(C(N)=O)cc2sc(N3CCN(Cc4c(-c5c(Cl)cccc5Cl)noc4C4CC4)[C@@H](C)C3)nc12
EC50 (FXR): 401 to 5000 nM

COc1cc(C(=O)O)cc2sc(N3CCN(Cc4c(-c5c(Cl)cccc5Cl)noc4C4CC4)CC3C)nc12 (centres unmarked)
EC50 (FXR-LBD): 10 to 100 nM
EC50 (FXR): 10 to 100 nM

C[C@@H]1CN(Cc2c(-c3ccccc3OC(F)(F)F)noc2C2CC2)CCN1c1nc2c(Cl)cc(C(=O)O)cc2s1
EC50 (FXR-LBD): 10 to 100 nM

COc1cc(C(=O)O)cc2sc(N3CCN(Cc4c(-c5c(Cl)cncc5Cl)noc4C(C)C)CC3)nc12
EC50 (FXR-LBD): 10 to 100 nM
EC50 (FXR): 101 to 400 nM

C[C@@H]1CN(Cc2c(-c3c(Cl)cccc3Cl)noc2C2CC2)CCN1c1nc2c(C(F)(F)F)cc(C(=O)O)cc2s1
EC50 (FXR): 10 to 100 nM

COc1cc(C(=O)O)cc2sc(C3CCN(Cc4c(-c5c(Cl)cccc5Cl)noc4C(C)C)C3)nc12 (centres unmarked)
EC50 (FXR-LBD): 101 to 400 nM

Cc1cc(C(=O)O)cc2sc(N3C[C@H](C)N(Cc4c(-c5c(Cl)cccc5Cl)noc4C4CC4)C[C@H]3C)nc12
EC50 (FXR): 10 to 100 nM

Cc1cc(C(=O)O)cc2sc(N3CCN(Cc4c(C(C)C)cnn4-c4c(Cl)cccc4Cl)CC3)nc12
EC50 (FXR): 101 to 400 nM

C[C@@H]1CN(Cc2c(-c3c(Cl)cccc3Cl)noc2C2CC2)[C@@H](C)CN1c1nc2c(F)cc(C(=O)O)cc2s1
EC50 (FXR): 10 to 100 nM

COc1cc(C(=O)O)cc2sc(N3CCC(Cc4c(-c5c(Cl)cccc5Cl)noc4C4CC4)C[C@@H]3C)nc12 (some centres unmarked)
EC50 (FXR-LBD): 10 to 100 nM

COc1cc(C(=O)O)cc2sc(N3C[C@H](C)N(Cc4c(-c5c(Cl)cccc5Cl)noc4C(C)C)C[C@@H]3C)nc12
EC50 (FXR): 401 to 5000 nM

Cc1cc2nc(N3CCN(Cc4c(-c5c(Cl)cccc5Cl)noc4C4CC4)C[C@H]3C)sc2cc1C(=O)O
EC50 (FXR): 101 to 400 nM

Cc1cc(C(=O)O)cc2sc(N3CCN(Cc4c(-c5c(Cl)cccc5Cl)noc4C4CC4)CC3)nc12
EC50 (FXR): 10 to 100 nM

C[C@@H]1CN(Cc2c(-c3c(Cl)cccc3Cl)noc2C2CC2)CCN1c1nc2cc(F)c(C(=O)O)cc2s1
EC50 (FXR): 10 to 100 nM

COc1cc(C(N)=O)cc2sc(N3CCN(Cc4c(-c5c(Cl)cccc5Cl)noc4C4CC4)C[C@H]3C)nc12
EC50 (FXR-LBD): 10 to 100 nM
EC50 (FXR): 10 to 100 nM

C[C@@H]1CN(Cc2c(-c3c(Cl)cccc3Cl)noc2C2CC2)CCN1c1nc2c(F)cc(C(=O)O)cc2s1
EC50 (FXR-LBD): 10 to 100 nM
EC50 (FXR): 10 to 100 nM

Cc1cc(C(=O)O)cc2sc(N3CCN(Cc4c(-c5c(Cl)cccc5Cl)noc4C4CC4)C[C@@H]3C)nc12
EC50 (FXR): 401 to 5000 nM

COc1cc(C(=O)O)cc2sc(N3CC4CCC(C3)N4Cc3c(-c4c(Cl)cccc4Cl)noc3C3CC3)nc12
EC50 (FXR): 101 to 400 nM

COc1cc(C(N)=O)cc2sc(N3C[C@H](C)N(Cc4c(-c5c(Cl)cccc5Cl)noc4C4CC4)C[C@H]3C)nc12
EC50 (FXR): 101 to 400 nM
